From US9725465B2, “Biaryl acetamide compounds and methods of use thereof” (Ambit Biosciences Corporation, priority 2013, dated 2017) come the findings set out here.

One assay concerns the target FLT3-ITD-D835V (Homo sapiens (Human), UniProt P36888, D835V/INS600HVDFREYEYD). As to the kind of experiment: pFLT3 MSD assay, Ba/F3 FLT3-ITD-D835V. Type of assay: cell-based. Conditions: Ba/F3 FLT3-ITD-D835V cells, 2 hours, read-out: BaF3-FLT3-ITD-D835V pFlt3 IC50.
A further assay deals with FLT3-ITD-F691L (Homo sapiens (Human), UniProt P36888, F691L/INS600HVDFREYEYD). As to the kind of experiment: pFLT3 MSD assay, Ba/F3 FLT3-ITD-F691L. Type of assay: cell-based. The conditions noted are these: Ba/F3 FLT3-ITD-F691L cells, 2 hours, read-out: BaF3-FLT3-ITD-F691L pFlt3 IC50.

Broadly, the IC50 is the concentration that inhibits the measured activity by half. As for `COc1ccc2cc(-c3ccc(CC(=O)Nc4cc(C5(C(F)(F)F)CC5)on4)cc3)cnc2c1` [Example 2, 2-(4-(7-methoxyquinolin-3-yl)phenyl)-N-(5-(1-(trifluoromethyl)cyclopropyl)isoxazol-3-yl)acetamide], the concentration for half-maximal inhibition (IC50) is 20 to 50 nM on FLT3-ITD-D835V and under 10 nM at FLT3-ITD-F691L.

Consider `O=C(Cc1ccc(-c2cnc3[nH]ccc3n2)cc1)Nc1cc(C2(C(F)(F)F)CC2)on1` [Example 3, 2-(4-(5H-pyrrolo[2,3-b]pyrazin-2-yl)phenyl)-N-(5-(1-(trifluoromethyl)cyclopropyl)isoxazol-3-yl)acetamide], for which the IC50 at FLT3-ITD-D835V and at FLT3-ITD-F691L was under 10 nM throughout.

As to `O=C(Cc1ccc(-c2cnc3ccsc3c2)cc1)Nc1cc(C2(C(F)(F)F)CC2)on1` [Example 10, 2-(4-(thieno[3,2-b]pyridin-6-yl)phenyl)-N-(5-(1-(trifluoromethyl)cyclopropyl)isoxazol-3-yl)acetamide], the half-inhibitory concentration (IC50) on FLT3-ITD-D835V and at FLT3-ITD-F691L was under 10 nM each time.

Regarding `O=C(Cc1ccc(-c2cnc3cccnc3c2)cc1)Nc1cc(C2(C(F)(F)F)CC2)on1` [Example 11, 2-(4-(1,5-naphthyridin-3-yl)phenyl)-N-(5-(1-(trifluoromethyl)cyclopropyl)isoxazol-3-yl)acetamide], the half-inhibitory concentration (IC50) on FLT3-ITD-D835V was 10 to 20 nM; at FLT3-ITD-F691L it was under 10 nM.

For `O=C(Cc1ccc(-c2cnc3ccncc3c2)cc1)Nc1cc(C2(C(F)(F)F)CC2)on1` [Example 12, 2-(4-(1,6-naphthyridin-3-yl)phenyl)-N-(5-(1-(trifluoromethyl)cyclopropyl)isoxazol-3-yl)acetamide], the IC50 at FLT3-ITD-D835V was 10 to 20 nM; at FLT3-ITD-F691L, under 10 nM.

Turning to `COc1cc(OC)c2cc(-c3ccc(CC(=O)Nc4cc(C5(C(F)(F)F)CC5)on4)cc3)cnc2c1` [Example 13, 2-(4-(5,7-dimethoxyquinolin-3-yl)phenyl)-N-(5-(1-(trifluoromethyl)cyclopropyl)isoxazol-3-yl)acetamide], the figures for the half-inhibitory concentration (IC50) at FLT3-ITD-D835V and on FLT3-ITD-F691L were 10 to 20 nM and under 10 nM, respectively.

Regarding `O=C(Cc1ccc(-c2cnc3[nH]cnc3n2)cc1)Nc1cc(C2(C(F)(F)F)CC2)on1` [Example 14, 2-(4-(1H-imidazo[4,5-b]pyrazin-5-yl)phenyl)-N-(5-(1-(trifluoromethyl)cyclopropyl)isoxazol-3-yl)acetamide], the figures for the IC50 on FLT3-ITD-D835V and at FLT3-ITD-F691L were 20 to 50 nM and 10 to 20 nM, respectively.

As for `COc1cc2ncc(-c3ccc(CC(=O)Nc4cc(C(C)(C)CO)on4)cc3)nc2cc1OC` [Example 16, 2-(4-(6,7-dimethoxyquinoxalin-2-yl)phenyl)-N-(5-(1-hydroxy-2-methylpropan-2-yl)isoxazol-3-yl)acetamide], the IC50 at FLT3-ITD-D835V and on FLT3-ITD-F691L was over 50 nM in each case.

Turning to `O=C(Cc1ccc(-c2cnc3[nH]c4c(c3n2)CCCC4)cc1)Nc1cc(C2(C(F)(F)F)CC2)on1` [Example 17, 2-(4-(6,7,8,9-tetrahydro-5H-pyrazino[2,3-b]indol-2-yl)phenyl)-N-(5-(1-(trifluoromethyl)cyclopropyl)isoxazol-3-yl)acetamide], the results for the IC50 on FLT3-ITD-D835V and on FLT3-ITD-F691L were under 10 nM and 20 to 50 nM, respectively.

With `O=C(Cc1ccc(-c2cnc3sccc3c2)cc1)Nc1cc(C2(C(F)(F)F)CC2)on1` [Example 19, 2-(4-(thieno[2,3-b]pyridin-5-yl)phenyl)-N-(5-(1-(trifluoromethyl)cyclopropyl)isoxazol-3-yl)acetamide], the IC50 was over 50 nM at FLT3-ITD-D835V and 20 to 50 nM at FLT3-ITD-F691L.

In the case of `Cc1nc2cc(-c3ccc(CC(=O)Nc4cc(C5(C(F)(F)F)CC5)on4)cc3)cnc2[nH]1` [Example 20, 2-(4-(2-methyl-3H-imidazo[4,5-b]pyridin-6-yl)phenyl)-N-(5-(1-(trifluoromethyl)cyclopropyl)isoxazol-3-yl)acetamide], the IC50 on FLT3-ITD-D835V was 10 to 20 nM; on FLT3-ITD-F691L, under 10 nM.

For the compound `Cn1ncc2ncc(-c3ccc(CC(=O)Nc4cc(C5(C(F)(F)F)CC5)on4)cc3)cc21` [Example 21, 2-(4-(1-methyl-1H-pyrazolo[4,3-b]pyridin-6-yl)phenyl)-N-(5-(1-(trifluoromethyl)cyclopropyl)isoxazol-3-yl)acetamide], the half-inhibitory concentration (IC50) on FLT3-ITD-D835V and at FLT3-ITD-F691L was under 10 nM each time.

Turning to `COc1ccc2nc(-c3ccc(CC(=O)Nc4cc(C5(C(F)(F)F)CC5)on4)cc3)cnc2c1` [Example 22, 2-(4-(6-methoxyquinoxalin-2-yl)phenyl)-N-(5-(1-(trifluoromethyl)cyclopropyl)isoxazol-3-yl)acetamide], the half-maximal inhibitory concentration (IC50) on FLT3-ITD-D835V and at FLT3-ITD-F691L was under 10 nM in each case.

Turning to `COc1ccc2ncc(-c3ccc(CC(=O)Nc4cc(C5(C(F)(F)F)CC5)on4)cc3)nc2c1` [Example 23, 2-(4-(7-methoxyquinoxalin-2-yl)phenyl)-N-(5-(1-(trifluoromethyl)cyclopropyl)isoxazol-3-yl)acetamide], the half-inhibitory concentration (IC50) is 10 to 20 nM on FLT3-ITD-D835V and under 10 nM on FLT3-ITD-F691L.

Consider `COCCOc1ccc2nc(-c3ccc(CC(=O)Nc4cc(C5(C(F)(F)F)CC5)on4)cc3)cnc2c1` [Example 24, 2-(4-(6-(2-methoxyethoxy)quinoxalin-2-yl)phenyl)-N-(5-(1-(trifluoromethyl)cyclopropyl)isoxazol-3-yl)acetamide], for which the IC50 on FLT3-ITD-D835V and at FLT3-ITD-F691L was under 10 nM in each case.

With `CC(C)(C)c1cc(NC(=O)Cc2ccc(-c3cnc4[nH]ccc4c3)cc2)no1` [Example 25, 2-(4-(1H-pyrrolo[2,3-b]pyridin-5-yl)phenyl)-N-(5-(tert-butyl)isoxazol-3-yl)acetamide], the IC50 at FLT3-ITD-D835V and on FLT3-ITD-F691L was under 10 nM in each case.

For `CC(C)(c1cc(NC(=O)Cc2ccc(-c3cnc4[nH]ccc4c3)cc2)no1)C(F)(F)F` [Example 26, 2-(4-(1H-pyrrolo[2,3-b]pyridin-5-yl)phenyl)-N-(5-(1,1,1-trifluoro-2-methylpropan-2-yl)isoxazol-3-yl)acetamide], the concentration for half-maximal inhibition (IC50) at FLT3-ITD-D835V and at FLT3-ITD-F691L was under 10 nM each time.

Turning to `CC(C)(C)c1cc(NC(=O)Cc2ccc(-c3cnc4[nH]ccc4c3)cc2F)no1` [Example 27, N-(5-(tert-butyl)isoxazol-3-yl)-2-(2-fluoro-4-(1H-pyrrolo[2,3-b]pyridin-5-yl)phenyl)acetamide], the IC50 on FLT3-ITD-D835V and at FLT3-ITD-F691L was under 10 nM each time.

Consider `O=C(Cc1ccc(-c2cnc3[nH]ccc3c2)cc1F)Nc1cc(C2(C(F)(F)F)CC2)on1` [Example 28, 2-(2-fluoro-4-(1H-pyrrolo[2,3-b]pyridin-5-yl)phenyl)-N-(5-(1-(trifluoromethyl)cyclopropyl)isoxazol-3-yl)acetamide], for which the half-maximal inhibitory concentration (IC50) at FLT3-ITD-D835V and on FLT3-ITD-F691L was under 10 nM in each case.

With `CC(C)(c1cc(NC(=O)Cc2ccc(-c3cnc4[nH]ccc4c3)cc2F)no1)C(F)(F)F` [Example 29, 2-(2-fluoro-4-(1H-pyrrolo[2,3-b]pyridin-5-yl)phenyl)-N-(5-(1,1,1-trifluoro-2-methylpropan-2-yl)isoxazol-3-yl)acetamide], the half-maximal inhibitory concentration (IC50) at FLT3-ITD-D835V and at FLT3-ITD-F691L was under 10 nM in each case.

As to `O=C(Cc1ccc(-c2cnc3[nH]ccc3n2)cc1F)Nc1cc(C2(C(F)(F)F)CC2)on1` [Example 30, 2-(2-fluoro-4-(5H-pyrrolo[2,3-b]pyrazin-2-yl)phenyl)-N-(5-(1-(trifluoromethyl)cyclopropyl)isoxazol-3-yl)acetamide], the IC50 at FLT3-ITD-D835V and on FLT3-ITD-F691L was under 10 nM each time.

For `CC(C)(C)c1cc(NC(=O)Cc2ccc(-c3cnc4[nH]ncc4c3)cc2)no1` [Example 31, 2-(4-(1H-pyrazolo[3,4-b]pyridin-5-yl)phenyl)-N-(5-(tert-butyl)isoxazol-3-yl)acetamide], the IC50 at FLT3-ITD-D835V and on FLT3-ITD-F691L was under 10 nM in each case.

Consider `CC(C)(C)c1cc(NC(=O)Cc2ccc(-c3cnc4[nH]ncc4c3)cc2F)no1` [Example 32, N-(5-(tert-butyl)isoxazol-3-yl)-2-(2-fluoro-4-(1H-pyrazolo[3,4-b]pyridin-5-yl)phenyl)acetamide], for which the IC50 on FLT3-ITD-D835V and at FLT3-ITD-F691L was under 10 nM throughout.

Take `CC(C)(c1cc(NC(=O)Cc2ccc(-c3cnc4[nH]ncc4c3)cc2F)no1)C(F)(F)F` [Example 34, 2-(2-fluoro-4-(1H-pyrazolo[3,4-b]pyridin-5-yl)phenyl)-N-(5-(1,1,1-trifluoro-2-methylpropan-2-yl)isoxazol-3-yl)acetamide]: the IC50 on FLT3-ITD-D835V and on FLT3-ITD-F691L was under 10 nM each time.

Turning to `COc1cc(OC)c2cc(-c3ccc(CC(=O)Nc4cc(C5(C(F)(F)F)CC5)on4)c(F)c3)cnc2c1` [Example 36, 2-(4-(5,7-dimethoxyquinolin-3-yl)-2-fluorophenyl)-N-(5-(1-(trifluoromethyl)cyclopropyl)isoxazol-3-yl)acetamide], the IC50 at FLT3-ITD-D835V and on FLT3-ITD-F691L was under 10 nM throughout.

As for `CC(C)(C)c1cc(NC(=O)Cc2ccc(-c3cnc4[nH]nc(C#N)c4c3)cc2)no1` [Example 37, N-(5-(tert-butyl)isoxazol-3-yl)-2-(4-(3-cyano-1H-pyrazolo[3,4-b]pyridin-5-yl)phenyl)acetamide], the IC50 on FLT3-ITD-D835V was 20 to 50 nM; at FLT3-ITD-F691L, 10 to 20 nM.

With `CC(C)(C)c1cc(NC(=O)Cc2ccc(-c3cnc4[nH]nc(Cl)c4c3)cc2)no1` [Example 38, N-(5-(tert-butyl)isoxazol-3-yl)-2-(4-(3-chloro-1H-pyrazolo[3,4-b]pyridin-5-yl)phenyl)acetamide], the 50% inhibitory concentration (IC50) on FLT3-ITD-D835V and at FLT3-ITD-F691L was under 10 nM throughout.

As to `Cc1n[nH]c2ncc(-c3ccc(CC(=O)Nc4cc(C(C)(C)C)on4)cc3)cc12` [Example 40, N-(5-(tert-butyl)isoxazol-3-yl)-2-(4-(3-methyl-1H-pyrazolo[3,4-b]pyridin-5-yl)phenyl)acetamide], the half-maximal inhibitory concentration (IC50) at FLT3-ITD-D835V and on FLT3-ITD-F691L was under 10 nM in each case.

On to `CC(C)(c1cc(NC(=O)Cc2ccc(-c3cnc4[nH]nnc4c3)cc2)no1)C(F)(F)F` [Example 41, 2-(4-(3H-[1,2,3]triazolo[4,5-b]pyridin-6-yl)phenyl)-N-(5-(1,1,1-trifluoro-2-methylpropan-2-yl)isoxazol-3-yl)acetamide], for which the IC50 at FLT3-ITD-D835V and at FLT3-ITD-F691L was over 50 nM each time.
